Test results reported in ChEMBL document CHEMBL5528046, “Discovery of Novel PROTAC Degraders of p300/CBP as Potential Therapeutics for Hepatocellular Carcinoma” (J Med Chem, 2024).

Amino acid sequences for entries named in this document (tags omitted). A change or cut given only in a name is not applied to a line headed by its entry.
UniProt Q09472: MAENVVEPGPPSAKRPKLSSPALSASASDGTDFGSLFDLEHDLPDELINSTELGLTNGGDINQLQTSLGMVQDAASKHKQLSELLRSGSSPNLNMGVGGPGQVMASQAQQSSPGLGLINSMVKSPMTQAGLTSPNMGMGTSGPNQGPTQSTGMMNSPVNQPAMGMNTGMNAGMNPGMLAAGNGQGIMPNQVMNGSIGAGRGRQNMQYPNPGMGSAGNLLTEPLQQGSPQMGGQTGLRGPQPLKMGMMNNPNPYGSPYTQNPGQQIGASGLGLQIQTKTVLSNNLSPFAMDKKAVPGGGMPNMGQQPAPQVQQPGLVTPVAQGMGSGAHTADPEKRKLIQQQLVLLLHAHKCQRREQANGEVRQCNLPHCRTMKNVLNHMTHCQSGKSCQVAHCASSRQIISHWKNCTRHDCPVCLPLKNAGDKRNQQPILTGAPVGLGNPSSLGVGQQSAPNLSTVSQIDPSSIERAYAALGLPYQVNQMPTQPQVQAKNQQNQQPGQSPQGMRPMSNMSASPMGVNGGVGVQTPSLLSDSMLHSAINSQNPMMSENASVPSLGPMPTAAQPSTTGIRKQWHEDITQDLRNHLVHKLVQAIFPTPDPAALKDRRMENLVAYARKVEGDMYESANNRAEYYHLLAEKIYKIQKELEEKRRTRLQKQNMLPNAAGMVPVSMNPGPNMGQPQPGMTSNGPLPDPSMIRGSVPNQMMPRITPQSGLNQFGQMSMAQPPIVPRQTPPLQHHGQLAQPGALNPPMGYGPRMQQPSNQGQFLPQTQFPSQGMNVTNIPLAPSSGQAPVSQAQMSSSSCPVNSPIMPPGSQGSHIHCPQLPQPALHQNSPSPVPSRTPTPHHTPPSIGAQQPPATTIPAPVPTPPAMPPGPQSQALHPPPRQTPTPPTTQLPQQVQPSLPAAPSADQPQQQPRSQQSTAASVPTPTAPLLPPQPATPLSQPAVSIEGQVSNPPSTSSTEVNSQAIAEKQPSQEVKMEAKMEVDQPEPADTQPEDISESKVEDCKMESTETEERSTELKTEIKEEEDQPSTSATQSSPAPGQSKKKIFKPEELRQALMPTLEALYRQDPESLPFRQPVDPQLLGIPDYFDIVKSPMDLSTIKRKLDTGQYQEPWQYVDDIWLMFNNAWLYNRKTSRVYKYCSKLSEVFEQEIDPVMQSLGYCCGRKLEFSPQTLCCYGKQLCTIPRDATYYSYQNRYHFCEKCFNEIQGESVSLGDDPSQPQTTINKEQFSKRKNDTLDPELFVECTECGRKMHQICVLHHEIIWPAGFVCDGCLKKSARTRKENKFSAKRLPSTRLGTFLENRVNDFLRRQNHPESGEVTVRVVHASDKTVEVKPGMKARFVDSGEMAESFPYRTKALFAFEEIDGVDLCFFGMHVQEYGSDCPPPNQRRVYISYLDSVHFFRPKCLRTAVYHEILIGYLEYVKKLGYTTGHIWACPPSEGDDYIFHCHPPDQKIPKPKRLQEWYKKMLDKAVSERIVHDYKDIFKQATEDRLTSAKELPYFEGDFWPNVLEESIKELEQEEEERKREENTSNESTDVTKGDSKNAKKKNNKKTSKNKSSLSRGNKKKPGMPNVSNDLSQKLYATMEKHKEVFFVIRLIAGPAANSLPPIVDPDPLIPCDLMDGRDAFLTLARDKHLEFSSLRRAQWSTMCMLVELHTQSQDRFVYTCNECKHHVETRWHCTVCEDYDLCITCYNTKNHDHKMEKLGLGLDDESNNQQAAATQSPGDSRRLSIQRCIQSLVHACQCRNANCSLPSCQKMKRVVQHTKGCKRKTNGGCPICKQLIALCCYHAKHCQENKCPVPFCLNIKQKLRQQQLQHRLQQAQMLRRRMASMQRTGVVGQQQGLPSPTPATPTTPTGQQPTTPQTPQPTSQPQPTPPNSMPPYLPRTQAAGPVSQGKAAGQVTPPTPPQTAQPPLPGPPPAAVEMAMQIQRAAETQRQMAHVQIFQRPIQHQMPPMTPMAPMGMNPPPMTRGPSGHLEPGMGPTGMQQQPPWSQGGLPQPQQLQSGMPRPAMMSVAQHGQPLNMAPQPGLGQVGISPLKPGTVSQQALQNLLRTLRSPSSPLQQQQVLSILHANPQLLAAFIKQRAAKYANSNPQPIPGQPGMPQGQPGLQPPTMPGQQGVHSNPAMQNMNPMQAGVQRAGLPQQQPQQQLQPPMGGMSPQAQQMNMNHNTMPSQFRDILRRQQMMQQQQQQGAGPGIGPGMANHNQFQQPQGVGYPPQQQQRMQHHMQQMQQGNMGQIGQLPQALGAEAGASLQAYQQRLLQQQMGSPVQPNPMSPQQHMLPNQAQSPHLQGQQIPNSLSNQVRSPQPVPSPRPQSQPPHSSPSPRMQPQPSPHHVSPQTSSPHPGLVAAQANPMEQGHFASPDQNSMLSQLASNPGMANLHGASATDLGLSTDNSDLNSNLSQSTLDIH
UniProt Q92793: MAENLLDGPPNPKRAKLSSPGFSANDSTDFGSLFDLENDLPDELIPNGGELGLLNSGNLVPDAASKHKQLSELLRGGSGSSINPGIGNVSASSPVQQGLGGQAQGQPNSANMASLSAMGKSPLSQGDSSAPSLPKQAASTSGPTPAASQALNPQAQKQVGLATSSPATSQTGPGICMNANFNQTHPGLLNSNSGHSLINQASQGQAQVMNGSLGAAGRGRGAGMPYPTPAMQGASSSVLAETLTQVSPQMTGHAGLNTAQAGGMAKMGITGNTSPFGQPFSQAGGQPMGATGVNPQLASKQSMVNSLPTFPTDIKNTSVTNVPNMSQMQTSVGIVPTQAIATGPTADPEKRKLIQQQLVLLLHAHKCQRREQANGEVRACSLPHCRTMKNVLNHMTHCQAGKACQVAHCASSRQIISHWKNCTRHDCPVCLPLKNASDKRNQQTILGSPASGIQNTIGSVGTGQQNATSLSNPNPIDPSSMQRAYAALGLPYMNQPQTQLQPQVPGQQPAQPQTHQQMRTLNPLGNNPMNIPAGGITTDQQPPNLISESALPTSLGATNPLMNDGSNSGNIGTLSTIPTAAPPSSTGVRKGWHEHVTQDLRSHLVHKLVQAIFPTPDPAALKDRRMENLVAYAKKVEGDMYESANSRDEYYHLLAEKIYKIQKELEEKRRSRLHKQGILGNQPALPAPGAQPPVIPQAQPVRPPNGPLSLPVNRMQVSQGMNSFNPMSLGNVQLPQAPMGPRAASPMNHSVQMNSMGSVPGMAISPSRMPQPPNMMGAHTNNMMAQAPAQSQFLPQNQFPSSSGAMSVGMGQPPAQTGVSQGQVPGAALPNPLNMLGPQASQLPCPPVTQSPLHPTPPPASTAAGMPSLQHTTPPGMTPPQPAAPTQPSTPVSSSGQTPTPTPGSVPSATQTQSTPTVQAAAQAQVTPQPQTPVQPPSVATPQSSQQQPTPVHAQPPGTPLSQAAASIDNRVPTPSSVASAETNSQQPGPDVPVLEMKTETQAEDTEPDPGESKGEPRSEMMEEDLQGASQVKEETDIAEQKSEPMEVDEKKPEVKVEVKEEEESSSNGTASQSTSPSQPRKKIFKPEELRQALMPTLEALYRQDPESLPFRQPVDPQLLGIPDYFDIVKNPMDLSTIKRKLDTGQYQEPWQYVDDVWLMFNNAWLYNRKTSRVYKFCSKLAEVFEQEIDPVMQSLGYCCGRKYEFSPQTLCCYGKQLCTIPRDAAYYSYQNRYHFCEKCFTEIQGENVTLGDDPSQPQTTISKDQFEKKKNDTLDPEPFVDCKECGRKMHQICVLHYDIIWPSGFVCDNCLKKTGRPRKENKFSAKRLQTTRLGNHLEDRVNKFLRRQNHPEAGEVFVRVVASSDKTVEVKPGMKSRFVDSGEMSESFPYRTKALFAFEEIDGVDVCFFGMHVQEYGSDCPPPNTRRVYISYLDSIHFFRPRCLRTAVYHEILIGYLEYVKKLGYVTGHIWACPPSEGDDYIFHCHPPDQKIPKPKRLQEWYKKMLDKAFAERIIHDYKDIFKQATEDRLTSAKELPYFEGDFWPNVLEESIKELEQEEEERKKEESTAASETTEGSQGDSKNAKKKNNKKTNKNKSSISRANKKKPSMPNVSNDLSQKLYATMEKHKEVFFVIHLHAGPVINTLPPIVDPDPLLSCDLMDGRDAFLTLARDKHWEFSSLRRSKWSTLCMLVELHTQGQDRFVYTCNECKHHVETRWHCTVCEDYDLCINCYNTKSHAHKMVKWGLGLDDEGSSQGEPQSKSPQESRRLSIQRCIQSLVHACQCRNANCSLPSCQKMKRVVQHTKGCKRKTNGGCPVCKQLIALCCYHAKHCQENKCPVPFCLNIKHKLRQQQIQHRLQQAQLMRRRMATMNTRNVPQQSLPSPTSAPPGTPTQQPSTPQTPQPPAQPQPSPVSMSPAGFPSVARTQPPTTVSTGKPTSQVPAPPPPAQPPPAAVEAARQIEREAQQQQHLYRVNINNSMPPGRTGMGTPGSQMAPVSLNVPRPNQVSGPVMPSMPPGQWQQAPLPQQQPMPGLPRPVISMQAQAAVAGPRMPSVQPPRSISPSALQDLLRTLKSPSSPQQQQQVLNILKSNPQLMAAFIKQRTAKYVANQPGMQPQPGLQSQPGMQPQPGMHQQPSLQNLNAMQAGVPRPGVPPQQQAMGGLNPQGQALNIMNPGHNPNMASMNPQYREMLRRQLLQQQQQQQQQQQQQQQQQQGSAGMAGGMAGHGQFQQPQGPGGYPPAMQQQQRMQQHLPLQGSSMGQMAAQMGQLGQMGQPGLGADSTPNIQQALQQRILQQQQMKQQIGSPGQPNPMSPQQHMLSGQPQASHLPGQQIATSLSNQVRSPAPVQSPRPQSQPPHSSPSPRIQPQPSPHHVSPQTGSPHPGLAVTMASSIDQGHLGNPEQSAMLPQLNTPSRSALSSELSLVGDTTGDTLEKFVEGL

Molecular target: CREB-binding protein/Histone acetyltransferase p300 (Homo sapiens, UniProt Q09472+Q92793)
Assay: Inhibition of p300/CBP (unknown origin) using histone H3 (1 to 21 residues) as substrate incubated for 90 mins by AlphaLISA assay
Format: protein assay

Molecule CO[C@H]1CC[C@H](n2c([C@@H]3CCCC(=O)N3c3ccc(F)c(F)c3)nc3cc(-c4c(C)noc4C)ccc32)CC1 [INOBRODIB] has an IC50 of 32 nM.
